Results on 2 molecules are retold here after US7902348B2, “Janus family kinases and identification of immune modulators” (The United States of America as represented by the …, priority 1995, dated 2011).

Common to all, as to format: cell-based, human
The test system of data set [1] is JAK-3. In words: IL-2 stimulated JAK-3 in vitro kinase activity in immunoprecipitates (Example 9). As to conditions: YT cells, IL-2 1000 U/ml for 0, 10 or 20 minutes. On the procedure:
Cells were treated with IL-2 (1000 U/ml) for 0, 10 or 20 minutes. In vitro kinase activity was measured in anti-JAK-3 immunoprecipitates. For measurement of in vitro kinase activity, immunoprecipitates were washed in 50 mM NaCl, 5 mM MgCl2, 5 mM MnCl2, 0.1 mM Na3VO4, 10 mM HEPES (pH 7.4) and incubated in the same buffer containing 0.25 μCi/ml [^32P-γ] ATP for 15 minutes at room temperature. After three washes, proteins were eluted in sample buffer and analyzed by SDS-PAGE. Gels were either dried or transferred to IMMOBILON™ membrane before exposure. Autophosphorylation signals were detected by autoradiography of the dried gels. JAK-3 in vitro kinase activity in response to IL-2 stimulation (15 minutes) was measured in immunoprecipitates from peripheral blood NK cells and Hut78 cells. […] Similar results were obtained using human peripheral blood NK cells and Hut78 cells. This kinase activity was not precipitated by preimmune serum or in the presence of competing JAK-3 peptide.

For data set [2], the system named is JAK-3. In words: Cytokine-induced tyrosine phosphorylation of JAK-3 in NK 3.3 cells (Example 10). As to conditions: 5 or 15 minutes stimulation. The procedure:
(§1) YT cells were serum-starved for 3 hours and acid washed twice before stimulation and immunoprecipitation. NK 3.3 cells were grown for 2 days in 10% lymphocult (Biotest) and 15% fetal bovine serum before being washed and incubated in 2% serum. Commercial polyclonal anti-JAK-1 and JAK-2 antisera were obtained from UBI and Tyk2 polyclonal antiserum from Santa Cruz Biotechnology.
In related procedures, NK 3.3 cells that were incubated overnight in 2% serum were stimulated with IL-2 (1000 U/ml), IL-4 (100 U/ml) or IFN-γ (500 U/ml) for 5 or 15 minutes. Cellular lysates were immunoprecipitated with anti-JAK-3 and blotted with antiphosphotyrosine.

Data set [3] relates to JAK-3. In words: Time course of IL-2 induced JAK-3 tyrosine phosphorylation in Hut78 cells (Example 7). As to conditions: Hut78 cells treated with IL-2 for 5, 10 or 30 minutes. On the procedure:
Cells were either unstimulated or stimulated with IL-2 (1000 U/ml) for 5 minutes, then lysed, immunoprecipitated with anti-JAK-3 antisera and immunoblotted and probed with a monoclonal antiphosphotyrosine antibody (4G10 UBI). In this procedure, cells were washed twice with RPMI that had been acidified at pH 6.5 before incubation for 3 hours with 0.5% human serum. The cells were again washed twice before stimulation with IL-2. The cells were lysed in buffer containing TRITON™ X-100 detergent prior to the immunoprecipitation procedure. Detection of the antiphosphotyrosine antibody probe bound to the 125 kDa JAK-3 protein band was by autoradiography.
Lysates from Hut78 cells either untreated or treated with IL-2 for 5, 10 or 30 minutes were immunoprecipitated with anti-JAK-3 and blotted with antiphosphotyrosine antibody and with anti-JAK-3. […] JAK-3 was also found to be phosphorylated in response to IL-2 in human peripheral blood T-cells that had been pre-activated with PHA for 24 hours. Thus in human T and NK cells, T-cell and NK cell lines, IL-2 induced the rapid tyrosyl phosphorylation of JAK-3 protein.

The test system of data set [4] is JAK-3. In words: Cytokine-induced tyrosine phosphorylation of JAK-3 in YT cells (Example 10). As to conditions: 15 minutes stimulation, anti-JAK-3 IP, antiphosphotyrosine blot. On the procedure: as §1

Take “IL-2: T-cell lymphokine, autocrine growth factor”: the “time of peak JAK-3 kinase activity” value in data set [1] is recorded as “approximately 10 minutes”. The JAK-3 tyrosine phosphorylation result in data set [2] and in data set [4] was “tyrosine phosphorylated” throughout. The “time of maximal JAK-3 tyrosine phosphorylation” value in data set [3] is 10 min.

B1: IL-3: lymphokine shown to activate JAK-2 (protein, UniProt P08700 20-152, looked up)
Interleukin-3: APMTQTTPLKTSWVNCSNMIDEIITHLKQPPLPLLDFNNLNGEDQDILMENNLRRPNLEAFNRAVKSLQNASAIESILKNLLPCLPLATAAPTRHPIHIKDGDWNEFRRKLTFYLKTLENAQAQQTTLSLAIF
For B1, the JAK-3 tyrosine phosphorylation entry in data set [4] is “not phosphorylated”.
